Earlier results on one molecule are cited in patent publication US20150344404A1, “PDK4 INHIBITOR AND USE THEREOF” (THE KITASATO INSTITUE, priority 2012, published 2015).

The chains behind the UniProt entries cited, without tags or fusion partners.
UniProt Q16654, whole entry, species assumed: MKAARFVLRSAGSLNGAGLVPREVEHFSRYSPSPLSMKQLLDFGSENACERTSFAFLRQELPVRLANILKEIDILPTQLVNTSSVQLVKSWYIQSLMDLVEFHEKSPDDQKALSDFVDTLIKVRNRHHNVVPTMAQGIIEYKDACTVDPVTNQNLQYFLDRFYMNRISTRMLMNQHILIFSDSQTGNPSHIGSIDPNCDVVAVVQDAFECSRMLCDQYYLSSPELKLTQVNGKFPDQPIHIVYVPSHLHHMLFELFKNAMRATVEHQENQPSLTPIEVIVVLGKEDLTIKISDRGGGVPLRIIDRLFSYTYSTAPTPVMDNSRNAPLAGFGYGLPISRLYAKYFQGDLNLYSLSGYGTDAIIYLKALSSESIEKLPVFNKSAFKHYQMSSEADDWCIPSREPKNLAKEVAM

The data set deals with PDK4 (Homo sapiens, UniProt Q16654). Conditions: background art; cited from earlier work.

As to `O=C(O)C(Cl)Cl` [Dichloro acetic acid], the “effect on PDK4 activity” value is given as “weak inhibitory activity”.
